Screening results (PubChem BioAssay)
GIV Gai3 FP: blocks GIV peptide binding to rat Galpha-i3. P08753. Galpha-i3/FITC-GIV peptide fluorescence polarization, 90 min; hits give low values; scaled: aluminum fluoride 0%, vehicle 100%. percent of control (FP), % (concentration not given with the values). actives 0.42% (n = 210,000). AID 1224905;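 active = replicate mean at 85% of control or lower, very high polarization wells dropped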;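 also: wells of about 15 µL received 100 nL stock; the first replicate is given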
An asterisk follows results filed as active. Shown is part of a subset that was picked to be rich in hits.

[1] COC(=O)Cn1c(=NC(=O)c2ccc(S(=O)(=O)N3CCCC3)cc2)sc2cc(NC(C)=O)ccc21
  GIV Gai3 FP: 102.1
[2] COC(=O)CN1C(=O)c2ccccc2NC1c1ccc(OC)cc1 (stereo not given)
  GIV Gai3 FP: 99.4
[3] COc1ccc(N2CC(c3nnc(NC(=O)Cc4cccc(OC)c4)o3)CC2=O)cc1 (stereo not given)
  GIV Gai3 FP: 103.0
[4] Cc1cc2c(cc1S(=O)(=O)N(C)CC(=O)NCCC(C)C)OC(C)C(=O)N2 (stereo not given)
  GIV Gai3 FP: 103.5
[5] Nc1nnc(CCC2CCCCC2)s1
  GIV Gai3 FP: 101.0
[6] N#CC1=C(N)SC(N)=C(C#N)C1CCC1CCCCC1
  GIV Gai3 FP: -94.8*
[7] CCOC(=O)c1sc2nc(CC(=O)OC)nc(NC(C)CC)c2c1C (stereo not given)
  GIV Gai3 FP: 97.3
[8] C=CCNc1ccc2c3c1cccc3c(=O)n1c3ccccc3nc21
  GIV Gai3 FP: -51.6*
[9] O=c1c2ccc(N3CCCCC3)c3cccc(c32)c2nc3ccccc3n12
  GIV Gai3 FP: 104.2
[10] O=c1c2cccc3cccc(c32)c2nc3ccccc3n12
  GIV Gai3 FP: 112.2
[11] COc1cc(C2C(C(=O)Nc3nc4ccccc4s3)=C(C)NC3=C2C(=O)CC(C)(C)C3)cc(OC)c1OC (stereo not given)
  GIV Gai3 FP: 100.5
[12] O=c1oc2cc(O)ccc2cc1-c1nc(-c2ccccc2F)no1
  GIV Gai3 FP: -62.2*
[13] O=c1oc2cc(O)ccc2cc1-c1csc(-c2ccccc2Cl)n1
  GIV Gai3 FP: 111.7
[14] O=c1oc2ccccc2cc1-c1nc(-c2ccccc2)no1
  GIV Gai3 FP: 112.2
[15] COc1ccc2c(c1)-c1c(ssc1=S)C(C)(C)N2C(=O)c1ccccc1Cl
  GIV Gai3 FP: 104.2
[16] CC1CCN(C(=O)CCCn2c(=O)c3cccn3c3ccccc32)CC1
  GIV Gai3 FP: 99.3
[17] CCOC(=O)C1=C(O)c2ccccc2C1=O
  GIV Gai3 FP: 100.6
[18] CCOC(=O)c1ccc2nc3c(nc2c1)C(=O)c1ccccc1C3=O
  GIV Gai3 FP: 123.4
[19] CCOC(=O)c1c2c(n3ccccc13)C(=O)c1ccccc1C2=O
  GIV Gai3 FP: -41.9*
[20] N#C/C(=C\Nc1ccc2c(c1)C(=O)OC2)C(=O)c1ccccc1
  GIV Gai3 FP: 103.2
[21] Cc1nn(C)c(C)c1CNC(=O)C1CCCN1c1nnc(N2CCCC2=O)s1 (stereo not given)
  GIV Gai3 FP: 98.8
[22] Cc1ccccc1-c1nc(CN2CCC(C(=O)NCc3ccccc3)CC2)c(C)o1
  GIV Gai3 FP: 103.6
[23] O=C(NCCc1ccccc1)NCc1nnnn1-c1ccccc1
  GIV Gai3 FP: 94.8
[24] Cn1c(=O)c2nc3ccc(NC(=O)Nc4ccccc4)cc3nc2n(C)c1=O
  GIV Gai3 FP: 106.7
[25] Cn1c(=O)c2nc3ccc(N)cc3nc2n(C)c1=O
  GIV Gai3 FP: 18.9*

Down the list, as entered above.
Compounds 16–21 in GIV Gai3 FP, in turn: 99.3, 100.6, 123.4, -41.9*, 103.2, 98.8

(continued)
[26] Cn1c(=O)c2nc3ccc(NC(=O)c4ccccc4)cc3nc2n(C)c1=O
  GIV Gai3 FP: 110.1
[27] NS(=O)(=O)c1ccc(Cl)c(-c2nnc(-c3ccccc3)o2)c1
  GIV Gai3 FP: 103.4
[28] CC(C)N/C=C1\C(=O)c2ccccc2N(C)S1(=O)=O
  GIV Gai3 FP: 99.1
[29] CC(C)N=Cc1cc2n(c1O)-c1ccccc1C2=O
  GIV Gai3 FP: -20.3*
[30] Cn1c(-c2ccccc2)cc(C=Nc2ccccc2)c1O
  GIV Gai3 FP: 116.8
[31] CCCCC12CN(C(=O)CC)CC(C)(CN(C(=O)CC)C1)C2=O
  GIV Gai3 FP: 101.0
[32] CC(=O)N1CCCc2cc(S(=O)(=O)N3CCC(C(=O)NCCN4CCc5ccccc5C4)CC3)ccc21
  GIV Gai3 FP: 98.0
[33] CCN(CC)S(=O)(=O)c1ccc(C(=O)Nc2sc3c(c2-c2nc4ccccc4s2)CCCC3)cc1
  GIV Gai3 FP: 108.0
[34] CC(=O)Nc1sc2c(c1-c1nc3ccccc3s1)CCN(Cc1ccccc1)C2
  GIV Gai3 FP: -3.2*
[35] CC(C)Oc1ccc(C(=O)Nc2sc3c(c2-c2nc4ccccc4s2)CCN(C)C3)cc1
  GIV Gai3 FP: -3.2*
[36] CCOc1ccc(C(=O)Nc2sc3c(c2-c2nc4ccccc4s2)CCN(CC)C3)cc1
  GIV Gai3 FP: -3.2*
[37] CCN1CCc2c(sc(NC(=O)CCc3ccccc3)c2-c2nc3ccccc3s2)C1
  GIV Gai3 FP: 121.3
[38] CCOC(=O)c1c(NC(=O)c2ccccc2)sc2c1CCN(C(C)C)C2
  GIV Gai3 FP: 123.3
[39] CCC(=O)Nc1sc2c(c1-c1nc3ccccc3s1)CCN(C(C)=O)C2
  GIV Gai3 FP: 104.4
[40] CCOC(=O)c1c(NC(=O)c2ccc(Cl)cc2)sc2c1CCN(C(C)C)C2
  GIV Gai3 FP: 185.8
[41] CN1CCc2c(sc(NC(=O)CSc3ccccc3)c2-c2nc3ccccc3s2)C1
  GIV Gai3 FP: 188.4
[42] COc1ccc(C(=O)Nc2sc3c(c2-c2nc4ccccc4s2)CCCC3)cc1OC
  GIV Gai3 FP: 106.7
[43] COC(=O)c1c(NC(=O)c2ccc(Br)cc2)sc2c1CCN(C(C)C)C2
  GIV Gai3 FP: -26.3*
[44] COC(=O)c1ccc(C(=O)Nc2sc3c(c2-c2nc4ccccc4s2)CCC(C)C3)cc1 (stereo not given)
  GIV Gai3 FP: 109.0
[45] O=S(=O)(c1cnc[nH]1)N1CCCC1c1ccc(F)cc1 (stereo not given)
  GIV Gai3 FP: 100.2
[46] COc1ccccc1NC(=O)C1C(=O)NC23CCCCC2C1c1ccccc1O3 (stereo not given)
  GIV Gai3 FP: 96.5
[47] O=C1CCC(=O)N1CN(CN1C(=O)CCC1=O)C1CCCCC1
  GIV Gai3 FP: 99.1
[48] O=C(NC1CCS(=O)(=O)C1)c1cc(-c2cccnc2)nc2ccccc12 (stereo not given)
  GIV Gai3 FP: 114.5
[49] CCOC(=O)C1CCN(C(=O)Cc2ccc(NC(=O)N3CCCCc4ccccc43)cc2)CC1
  GIV Gai3 FP: 107.5
[50] CC(=O)N1CCc2c(sc(NC(=O)c3ccc(Br)s3)c2-c2nc3ccccc3s2)C1
  GIV Gai3 FP: 107.6

Compounds listed so far with a Cl atom, in the order listed:
[13] O=c1oc2cc(O)ccc2cc1-c1csc(-c2ccccc2Cl)n1
  GIV Gai3 FP: 111.7
[15] COc1ccc2c(c1)-c1c(ssc1=S)C(C)(C)N2C(=O)c1ccccc1Cl
  GIV Gai3 FP: 104.2
[27] NS(=O)(=O)c1ccc(Cl)c(-c2nnc(-c3ccccc3)o2)c1
  GIV Gai3 FP: 103.4
[40] CCOC(=O)c1c(NC(=O)c2ccc(Cl)cc2)sc2c1CCN(C(C)C)C2
  GIV Gai3 FP: 185.8

The listing continues.
no.	structure	GIV Gai3 FP
51	CC(C)N1CCc2c(sc(NC(=O)c3ccc(F)cc3)c2-c2nc3ccccc3s2)C1	-3.2*
52	CC(=O)N1CCc2c(sc(NC(=O)c3ccc4c(c3)OCCO4)c2-c2nc3ccccc3s2)C1	111.6
53	COc1cc(C2C(C#N)=C(N)N(c3ccc(F)cc3)C3=C2C(=O)CCC3)cc(OC)c1OC (stereo not given)	113.3
54	CCCn1cnc2sc(C(=O)NCCN3CCOCC3)c(C)c2c1=O	104.8
55	CCOc1ccc(NC(=O)CSC2=C(C#N)C(c3cccs3)CC(=O)N2)cc1 (stereo not given)	104.3
56	Cc1cc(C)c(S(=O)(=O)N2CCN(Cc3ccc4c(c3)OCO4)CC2)cc1C	100.6
57	Cc1csc(-c2cc(S(=O)(=O)N3CCN(Cc4ccc5c(c4)OCO5)CC3)c(C)s2)n1	-0.1*
58	O=S(=O)(c1cc(Cl)sc1Cl)N1CCN(Cc2ccc3c(c2)OCO3)CC1	96.6
59	Cc1noc(Cn2cnc3c([nH]c4ccc(F)cc43)c2=O)n1	99.0
60	O=C(NCC1CCCO1)c1c(NC(=O)c2nn(-c3ccc(Cl)cc3)ccc2=O)sc2c1CCC2 (stereo not given)	105.3
61	N#CC(c1ccc2c(c1)OCO2)N1CCN(C(C#N)c2ccc3c(c2)OCO3)CC1 (stereo not given)	101.2
62	O=c1c(=O)n(-c2ccccc2)ccn1Cc1cccc(F)c1	106.0
63	CCOc1cc(Br)c(Br)c(/C=C2\SC(=S)N(CC(=O)O)C2=O)c1O	141.8
64	CCOc1cc(/C=C2/SC(=Nc3ccccc3)NC2=O)cc(Br)c1O	276.4
65	CCOc1cc(/C=C2/SC(=S)N(C)C2=O)cc(Br)c1O	-46.7*
66	O=c1ccc(-c2ccc(S(=O)(=O)NCCCN3CCCCCC3)s2)n[nH]1	109.6
67	N#CC1=C(N)OC2=C(CCc3ccccc32)C1c1ccccc1 (stereo not given)	99.7
68	N#CC1=C(N)SC(N)=C(C#N)C1c1ccccc1	-0.3*
69	N#CC1=C(N)Oc2cc(O)ccc2C1c1ccccc1 (stereo not given)	103.8
70	CN(c1ccccc1)C1CCCCC1NS(=O)(=O)c1ccccc1 (stereo not given)	101.6

Further results.
no.	structure	GIV Gai3 FP
71	O=C(CC1CCCC1)N1CCCC(c2nc3c(nnn3Cc3ccccc3)c(=O)[nH]2)C1 (stereo not given)	110.6
72	O=C1c2ccccc2C(=O)N1CC1c2ccccc2CCN1S(=O)(=O)Cc1ccccc1 (stereo not given)	113.6
73	O=S(=O)(c1ccc(Cl)cc1)N1CCCC(c2nc(-c3ccc(Br)cc3)no2)C1 (stereo not given)	100.6
74	O=C(NCc1ccc(F)cc1)c1ccc(-n2nnc3cccnc32)cc1	107.8

Some of these compounds in order of their number in GIV Gai3 FP, smallest number first:
no.	structure	GIV Gai3 FP
73	O=S(=O)(c1ccc(Cl)cc1)N1CCCC(c2nc(-c3ccc(Br)cc3)no2)C1 (stereo not given)	100.6
74	O=C(NCc1ccc(F)cc1)c1ccc(-n2nnc3cccnc32)cc1	107.8
72	O=C1c2ccccc2C(=O)N1CC1c2ccccc2CCN1S(=O)(=O)Cc1ccccc1 (stereo not given)	113.6
